{
  "source": "patent US7358237B2",
  "about": "“Inducible nitric oxide synthase binds, S-nitrosylates, and activates cyclooxygenase-2” (The Johns Hopkins University, priority 2005, dated 2008)",
  "biological_target": "T1, iNOS and COX2 binding (Mus musculus, UniProt P29477+Q05769)",
  "T1 construct": "endogenous in cells; host or cells: RAW264.7 murine macrophages induced with LPS/IFNγ",
  "test": "Co-immunoprecipitation of iNOS and COX2 in LPS/IFNγ-induced RAW264.7 cells",
  "type": "cell-based, murine",
  "data": [
    {"molecule": "CS(=O)(=O)c1ccc(-n2nc(C(F)(F)F)cc2-c2ccc(F)cc2)cc1", "note": "[SC58125]", "values": [
      {"measurement": "Co-precipitation of iNOS and COX2", "value": "unaffected"}
    ]}
  ]
}
